Measurements: patent US9458161B1, “TSPO ligands for cancer imaging and treatment” (Vanderbilt University, priority 2011, dated 2016)

Tests used:
DiFi human CRC cells = test: Immunoblotting of markers in DiFi cells (WT KRAS) after 24 hr drug exposure; format: cell-based; conditions: for pERK levels: 24 hr
Protocol: In these studies, cultured cells were exposed to drug for 24 hr, harvested, and the protein levels of various markers were assayed by immunoblotting. […] Consistent with activation of cAMP signaling stemming from the production and cell utilization of progesterone, we found pPKA elevated following treatment with the TSPO ligand.

[1] = system: DiFi colorectal cancer xenografts; test: TSPO and Ki67 immunohistochemistry in DiFi CRC xenografts after mAb-C225; format: in vivo, athymic nude mice; conditions: for TSPO expression in tumors (immunohistochemistry): DiFi xenografts (WT KRAS), compared with vehicle treated cohorts
Source text: One embodiment of the present invention is measuring TSPO expression in tumors to evaluate treatment response. […] We have considerable previous experience with the DiFi model (wt KRAS), which was derived from a rectal tumor arising in a patient with familial polyposis.
Additionally, embodiments of the present invention are methods for predicting response to therapy. […] We have considerable experience with DiFi xenografts (wt KRAS), derived from a rectal tumor arising in a patient with familial polyposis.

## C225: therapeutic monoclonal antibody that blocks ligand-induced activation of the epidermal growth factor receptor (EGFR)
DiFi human CRC cells; C225 single agent
  cleaved caspase 3 levels (apoptosis): apoptosis was induced by the elevated dosage of C225 (++) only
DiFi human CRC cells; C225 single agent 0.5 μg/mL (+)
  pERK levels: in sufficient to yield pERK inhibition
DiFi human CRC cells; C225 single agent 5.0 μg/mL (++)
  pERK levels: fully inhibited pERK levels
[1]
  TSPO expression in tumors (immunohistochemistry): significantly decreased
[1]; listed as mAb-C225
  TSPO expression in tumors (immunohistochemistry): significant reduction of TSPO; also recorded: significantly reduced
[1]; DiFi xenografts, single therapeutic dose
  Ki67 (proliferation) in tumors: significantly reduced

“Also recorded” adds a separate entry of the source.
